Here are results for 2 compounds from US9040727B2, “Histone deacetylase inhibitor of benzamides and use thereof” (Shanghai Institute of Pharmaceutical Industry, priority 2011, dated 2015).

Chains of the proteins cited; added tags and fusions are not shown.
UniProt Q13547, whole entry: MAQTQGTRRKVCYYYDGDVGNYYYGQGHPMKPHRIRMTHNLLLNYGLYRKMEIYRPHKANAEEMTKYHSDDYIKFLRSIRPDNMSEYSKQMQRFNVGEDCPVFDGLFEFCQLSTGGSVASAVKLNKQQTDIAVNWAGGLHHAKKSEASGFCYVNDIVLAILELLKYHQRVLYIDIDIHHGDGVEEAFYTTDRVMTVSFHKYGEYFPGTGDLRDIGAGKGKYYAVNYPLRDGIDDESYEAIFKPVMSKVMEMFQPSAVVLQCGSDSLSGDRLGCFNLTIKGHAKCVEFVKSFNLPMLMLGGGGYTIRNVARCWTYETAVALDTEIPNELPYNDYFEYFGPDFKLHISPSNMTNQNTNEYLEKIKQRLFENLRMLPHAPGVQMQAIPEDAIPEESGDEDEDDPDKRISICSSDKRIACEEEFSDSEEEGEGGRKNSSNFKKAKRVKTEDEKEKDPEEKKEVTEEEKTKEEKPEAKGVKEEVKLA

For assay [1], the system named is A549 human lung cancer cells. Description: In vitro anti-proliferative effect, CCK-8 method. Format: cell-based. On the procedure: (§1) The inhibitory activities of the compounds towards Hut78 T lymphocytic leukemia cells, Jurkat E6-1 human T-cell lymphoma, A549 human lung cancer cells, K562 human chronic myelogenous leukemia cells, Hep3B2.1-7 human liver cancer cells, MDA-MB-435s human breast cancer cells, Colo320 human rectal cancer cell line, and PC-3 human prostate cancer were determined. The inhibition percentages as represented by IC50 values were obtained through CCK-8 method.
(Tetrazolium dyes change colour on reduction, which living cells bring about.)

The next assay relates to HDACs. Kind of assay: In vitro inhibition of HDACs (HDAC Inhibitor Drug Screening Kit). Format: biochemical. On the procedure:
The test was conducted according to the instructions in the HDAC Inhibitor Drug Screening Kit (Biovision/Catalog #50051, BPS).
(2) The compound to be tested was diluted using DMSO with a four times dilution method to give 10 diluted concentrations, i.e. 500 μM, 125 μM, 31.25 μM, 7.81 μM, 1.95 μM, 0.49 μM, 0.12 μM, 0.03 μM, 7.6 E-03 μM and 1.9 E-03 μM in sequence. Each dilution sample was placed in two wells and the enzyme inhibition IC50 of the compound was tested.

A further assay addresses HDAC1 (Homo sapiens (Human), UniProt Q13547). Kind of assay: In vitro inhibitory activity towards HDAC1 (HDAC Inhibitor Drug Screening Kit). The format is biochemical. On the procedure: (1) The compounds to be tested were each individually prepared as 10 μM and 1 μM solutions and their inhibitory activities towards HDAC1 at these concentrations were tested.
Each dilution sample was placed in two wells and the enzyme inhibition IC50 of the compound was tested.

The subject of assay [2] is K562 human chronic myelogenous leukemia cells. Kind of assay: In vitro anti-proliferative effect, CCK-8 method. Format: cell-based. On the procedure:
as §1

A word on the IC50: it is the concentration at which inhibition is half-maximal. Read a low IC50 as inhibition by little substance. Regarding `Nc1ccccc1NC(=O)c1ccc(CNC(=O)c2cccc3ccccc23)cc1` [Compound V-15], the IC50 in assay [1] is 534 nM; in the assay on HDACs, 1040 nM; on HDAC1 it was 517 nM.

Take `Nc1ccccc1NC(=O)c1ccc(CNC(=O)OCc2cccnc2)cc1` [MS-275, reference compound]: half-maximal inhibition in assay [2] (IC50) required 4.66 µM. Besides, the “% Inhibition of HDAC1” value at HDAC1 (compound at 1 μM) is listed as 45.73%.
